Test results published in PMC12457078, “Inhibition of soluble epoxide hydrolase in endotoxin induced pig lung injury” (Frontiers in Pharmacology, 2025).

System: sEH
Experiment: oxylipin analysis, epoxide/diol ratios (target engagement)
Assay type: in vivo, pig
Design: 12,13-DiHOME / 9(10)-EpOME / 12(13)-EpOME: unit not given here
Conditions: 6 hours

For `CCOCCOCCOCCCCCNC(=O)NC12CC3CC(CC(C3)C1)C2` [Compound 950], the “9(10)-EpOME” value (AEPU group, mean (SD)) was 1.47 (1.12) nM, the “9,10-DiHOME” value (AEPU group, mean (SD)) was 5.21 (3.00) nM and the “12(13)-EpOME” value (AEPU group, mean (SD)) was 5.12 (4.71) nM. For the same molecule, the “12,13-DiHOME” value (AEPU group, mean (SD)) was 17.24 (10.55) nM, the “15(16)-EpODE” value (AEPU group, mean (SD)) was 26.10 (27.79) nM and the “15,16-DiHODE” value (AEPU group, mean (SD)) was 38.08 (23.02) nM. For the same molecule, the “Hedges’ G (95% CI), 9(10)-EpOME” value (AEPU vs placebo) was 0.86 (−0.06–1.76), the “Hedges’ G (95% CI), 12(13)-EpOME” value (AEPU vs placebo) was 1.06 (0.12–1.98) and the “Hedges’ G (95% CI), 15(16)-EpODE” value (AEPU vs placebo) was 0.49 (−0.40–1.36). For the same molecule, the “Hedges’ G (95% CI), 15,16-DiHODE” value (AEPU vs placebo) was 0.23 (−0.64–1.09).
